From patent US9291621B2, “AGER-peptides and use thereof” (AbbVie Deutschland GmbH & Co. KG, priority 2005, dated 2016)

Key:
[1] = biological target: T1, sRAGE-6×HIS (amino acids 23-352, NP_001127) (Homo sapiens, UniProt Q15109); assay: AlphaScreen measurement of peptide binding to sRAGE; conditions: biotinylated peptide 0-300 nM, sRAGE-6×HIS 2.5 ng/μl
T1 construct: fusion protein sRAGE-6×HIS (amino acids 23-352, NP_001127); made in house
Protocol: The binding of NtermR31 or NtermR13 to the RAGE receptor was measured by employing the AlphaScreen™ System (order number: 6760610M) from Perkin Elmer (Shelton, Conn., USA).
The entire homogeneous assay was carried out in 25 mM HEPES, 100 mM NaCl of pH 7.4 and 0.1% BSA in a volume of 20 μl. The mixture comprised 2.5 ng/μl of the fusion protein sRAGE-6×HIS (amino acids 23-352, NP_001127), 20 ng/μl of anti-HIS acceptor beads, 20 ng/μl streptavidin donor beads and NtermR13 or NtermR31 peptides in the concentrations of 0, 1, 5, 10, 25, 50, 100, 150 and 300 nM.
The individual components were brought together in a defined time sequence. […] The various amounts of peptide were then added in order, after a further 30 minutes, to add the donor beads. After a further 60 minutes, the fluorescence was measured in the AlphaQuest instrument from Perkin-Elmer with a time lag of one second. Each measured point was determined as triplicate. […]
The binding to the RAGE receptor was measured by employing the AlphaScreen™ System (order number: 6760610M) from Perkin Elmer (Shelton, Conn., USA). […]
The individual components were brought together in a defined time sequence. […] After a further 60 minutes, the fluorescence was measured in the AlphaQuest instrument from Perkin-Elmer with a time lag of one second. Each measured point was determined as triplicate. […]

[2] = biological target: T2, Nogo receptor (His-NogoR coated on microtiter plate) (Homo sapiens, UniProt Q9BZR6); assay: AP-Nogo66 competition assay; conditions: AP-Nogo66 0.1 nM; competitor 1.2-100 nM; read-out: IC50, blocking of AP-Nogo66 binding to NgR
T2 construct: soluble His-NogoR; Myc (C); made in house; host or cells: CHO-K1
T2 sequence (Q9BZR6 27-447 limits assumed): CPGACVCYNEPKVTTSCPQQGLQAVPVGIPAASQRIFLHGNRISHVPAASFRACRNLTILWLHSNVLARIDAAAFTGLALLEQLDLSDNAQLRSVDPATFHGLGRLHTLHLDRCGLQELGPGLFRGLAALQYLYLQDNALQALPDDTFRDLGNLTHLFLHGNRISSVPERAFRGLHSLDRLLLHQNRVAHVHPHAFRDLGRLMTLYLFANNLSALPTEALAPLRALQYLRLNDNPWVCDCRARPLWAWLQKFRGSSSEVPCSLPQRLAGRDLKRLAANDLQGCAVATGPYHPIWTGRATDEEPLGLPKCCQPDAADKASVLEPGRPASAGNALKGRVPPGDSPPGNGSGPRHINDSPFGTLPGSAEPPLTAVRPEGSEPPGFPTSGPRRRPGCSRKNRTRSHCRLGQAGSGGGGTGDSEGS
Protocol: This was followed by a blocking step for 1 hour with 2% strength bovine serum albumin (BSA) in Tris-HCl, pH 7.2, at room temperature. […] These stock solutions were then diluted three-fold.
After each incubation step, the plates were washed with washing buffer (10 mM Tris-HCl, pH 7.2 and 0.05% Tween20).

**Q.** For “QNITARIGEPLVLKCKGAPKKPPQRLEWKLN [NtermR31]”, which EC50 [1] is on record?
**A.** 0.062 µM

**Q.** What about the IC50 [2] of the same sequence?
**A.** 0.05 µM
